Reference: US6982260B1, “Quinazolines and their use for inhibiting cyclin-dependent kinase enzymes” (Warner-Lambert Company, priority 1999, dated 2006)

Key:
cdk2/cyclinE = cdk2/cyclinE (Homo sapiens, UniProt P24941); experiment: cdk2/cyclinE kinase assay; type: biochemical; conditions: 32P incorporation into retinoblastoma, 25° C., 15 minutes; read-out: Cdk2E IC50
Experimental: (§1) All components except the ATP were added to the wells, and the plate was placed on a plate mixer for 2 minutes. The reaction was begun by addition of [^32P]ATP, and the plate was incubated at 25° C. for 15 minutes. The reaction was terminated by addition of 0.1 mL of 20% TCA. The plate was kept at 4° C. for at least 1 hour to allow the substrate to precipitate. The wells were then washed five times with 0.2 mL of 10% TCA and ^32P incorporation determined with a beta plate counter (Wallac Inc., Gaithersburg, Md.).

cdk2/A = cdk2/A (Homo sapiens, UniProt P24941); experiment: cdk2/A kinase assay; type: biochemical; conditions: 32P incorporation into retinoblastoma, 25° C., 15 minutes; read-out: Cdk2A IC50
Experimental: as §1

Q: How did the IC50 (cdk2/cyclinE) turn out when `COc1ccc2cnc(Nc3ccc(N4CCCC4)cc3)nc2c1C1CCCC1` [Example 24, (8-Cyclopentyl-7-methoxy-quinazolin-2-yl)-(4-pyrrolidin-1-yl-phenyl)-amine] was run?
A: > 5 µM

Q: What about the IC50 (cdk2/A) of the same compound?
A: 7.69 µM
